Measured values as given in ChEMBL document CHEMBL1122241, “A simplified high-pressure liquid chromatography method for determining lipophilicity for structure-activity relationships” (J Med Chem, 1983).

Experiment: pKa value is evaluated
Assay type: physicochemical

Which pKa does the source give for `Nc1ccc(S(=O)(=O)Nc2ncccn2)cc1` [SULFADIAZINE] here?
Its pKa is 6.52.
